Antibody variant affinities, Ab-95 light chain, assay 2

From the AlphaSeq antibody data of Engelhart et al. 2022 (doi:10.1038/s41597-022-01779-4), copy in the FLAb collection.

All variants were tested on one target, the spike HR2 peptide PDVDLGDISGINAS (SARS-CoV-2).

Parent scFv Ab-95: VH joined to VL by a (GGGGS)3 linker. Changes lie in the light chain CDRs alone.
VH: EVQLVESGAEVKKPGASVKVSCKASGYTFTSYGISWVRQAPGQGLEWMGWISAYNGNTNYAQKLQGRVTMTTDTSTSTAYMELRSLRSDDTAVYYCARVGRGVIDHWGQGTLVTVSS
VL: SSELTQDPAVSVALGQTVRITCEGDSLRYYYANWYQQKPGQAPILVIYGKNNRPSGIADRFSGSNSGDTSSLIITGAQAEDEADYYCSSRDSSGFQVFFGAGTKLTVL

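The starting antibody came from a phage panning campaign against this peptide. Library AAYL52 holds single substitutions and randomly drawn double and triple substitutions in the CDRs. The assay is AlphaSeq: two haploid yeast populations carry antibody and antigen on their surface. Pairs that bind mate more often; barcode pairs of the diploids are counted by sequencing. Read counts were normalised to the haploid input and turned into Kd by a linear fit to BCL2-family pairs of known affinity, for each replicate. Mating was done three times.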

Changes read parent residue, position, new residue, counted from the first residue of the VL shown.
Scale: log10 of Kd in nM, estimated from mating counts; low values are strong binders.
The mean shown is taken over the replicates in which the pair was detected.
"ND" means that the variant was in the library but no mating with the target was seen in that replicate; the authors take this as a sign of poor binding, and no number exists.
For reference, the parent read 2.31 as the reference entry and 2.25 as a member of this library.
Nonspecific signal, from three strains lacking the peptide, appeared in 28% of pairings of library AAYL52, centred on 3.91 (5% of these signals below 2.90); values are not corrected for it. Also given: how often the same scFv was detected with the empty control strains, with their mean in brackets.

changes,"log10 Kd, replicates","mean, log10 nM",control signals
G24K/N33C/S55F,5.92 / ND / 4.40,5.16,3 of 9 (4.56)
D25K/S26Q/S88H,3.24 / 3.82 / ND,3.53,0 of 9
K50H/S88A,2.44 / 2.39 / 2.77,2.53,3 of 9 (3.39)
Y30M/G49S/S93M,ND / 4.99 / ND,4.99,1 of 9 (3.72)
E23Q/L27M/D91A,3.00 / 4.00 / 2.46,3.16,1 of 9 (3.00)
Y30N/P54W/D91V,2.88 / 2.52 / 2.53,2.64,6 of 9 (4.19)
N33D/P54G/V97P,4.55 / 5.49 / ND,5.02,7 of 9 (4.14)
S88M/F95A/V97F,4.93 / 3.68 / ND,4.31,0 of 9
Y31V/R90E/F98L,ND / ND / 4.37,4.37,1 of 9 (3.92)
A32E/P54K/S88E,3.40 / ND / 3.95,3.67,1 of 9 (3.50)
Y30H/R90F/S93Y,1.16 / 0.79 / 0.38,0.78,1 of 9 (4.23)
Y30L/Y31S/F98N,2.45 / 2.34 / 2.71,2.50,0 of 9
D25K/S89P/F98K,3.95 / 3.44 / 3.67,3.69,4 of 9 (4.60)
S26E/L27W/V97E,ND / ND / ND,ND,1 of 9 (3.24)
Y30M/D91C/S93L,3.05 / ND / 2.70,2.88,2 of 9 (3.46)
L27M/S55W,3.01 / 2.66 / ND,2.83,3 of 9 (3.93)
L27I/G49K/N51W,4.12 / ND / ND,4.12,3 of 9 (3.80)
Y31C/N51F/G94C,ND / ND / ND,ND,3 of 9 (4.33)
R28E/Y30P/Y31R,2.90 / 2.60 / 2.29,2.60,2 of 9 (3.88)
D25N/S89R/V97M,2.71 / 2.97 / ND,2.84,3 of 9 (3.91)
R28I/S89F/S92L,ND / ND / 3.00,3.00,0 of 9
S26I/N52I/R53G,ND / ND / 3.51,3.51,2 of 9 (3.80)
K50M/D91Q/S92I,5.11 / ND / ND,5.11,2 of 9 (4.28)
N33R/R53S/S93E,4.72 / ND / ND,4.72,2 of 9 (3.74)
R28S/G49N/S93T,4.23 / 2.98 / ND,3.61,1 of 9 (3.33)
G24D/R28M/Q96R,ND / ND / ND,ND,0 of 9
D25N/N33T/N52F,ND / 4.57 / ND,4.57,0 of 9
E23Q/S55R/F98H,2.24 / 2.08 / 1.83,2.05,3 of 9 (3.90)
S55P/V97I,3.53 / 2.88 / 1.58,2.66,2 of 9 (3.68)
N51E/G94P/V97T,ND / 4.12 / ND,4.12,1 of 9 (4.05)
R90M/S92T/F95A,3.39 / 2.91 / 3.49,3.26,3 of 9 (4.56)
R53G,2.53 / 2.39 / 2.49,2.47,4 of 9 (3.70)
E23D/N51I/R90P,ND / 4.10 / 4.19,4.14,4 of 9 (3.90)
E23F/L27N/N51Q,ND / ND / ND,ND,1 of 9 (2.34)
A32Q/K50L/S55M,ND / ND / ND,ND,2 of 9 (3.40)
D25Q/G49H/V97H,4.68 / ND / ND,4.68,2 of 9 (3.86)

5 of these entries, quoted again:

| changes | log10 Kd, replicates | mean, log10 nM | control signals |
|---|---|---|---|
| R28I/S89F/S92L | ND / ND / 3.00 | 3.00 | 0 of 9 |
| A32Q/K50L/S55M | ND / ND / ND | ND | 2 of 9 (3.40) |
| D25K/S89P/F98K | 3.95 / 3.44 / 3.67 | 3.69 | 4 of 9 (4.60) |
| Y30M/D91C/S93L | 3.05 / ND / 2.70 | 2.88 | 2 of 9 (3.46) |
| D25N/S89R/V97M | 2.71 / 2.97 / ND | 2.84 | 3 of 9 (3.91) |